# Patent publication US20100152129A1, “Novel synergistic combination of gemcitabine with P276-00 or P1446A in treatment of cancer” (priority 2008, published 2010)
# System: Panc1 cells
# Conditions: human, 6 h
compound,measurement,value
CN1CC[C@H](c2c(O)cc(O)c3c(=O)cc(-c4ccccc4Cl)oc23)[C@H](O)C1 [Flavopiridol],% Cytotoxicity in Panc1 cells,14.25%
